Several values for one entry are separate records, joined by “and”; a condition that tells them apart may be missing. Equal entries are not always repeated. Most of the hits are listed elsewhere, so they are rarer here than in the full data. Activity calls are given as the source filed them. Calls come from the whole dose curve; as a rule, active = well fitted inhibition curve with a large enough effect; inconclusive = small, poorly fitted or top-dose-only effect; inactive = flat fitted curve, though single readings scatter.
biological target: Caspase-1 (Homo sapiens) (UniProt P29466); experiment: qHTS Assay for Allosteric/Competitive Inhibitors of Caspase-1; settings: Caspase-1 enzyme, Ac-WEHD-AFC fluorogenic rate; at 25.7 µM (top of the series) unless noted;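 note: plate controls were vehicle for no effect and no substrate for full effect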
Source text: NIH Molecular Libraries Screening Centers Network [MLSCN]
NIH Chemical Genomics Center [NCGC]
PI Name: Dr. James Wells,
Dr. Enrique Perez-Paya, Dr.Janice Williams, Dr. Dennis Wolan, a person
The caspases (Cysteine Aspartyl Protease) comprise a related family of 14 dimeric proteases that are critical mediators of apoptosis (programmed cell death) and inflammation. The caspases represent an important class of drug targets for stroke, ischemia, cancer and inflammatory diseases. […] One goal of this project was to identify compounds that act as allosteric inhibitors via stabilizing the procaspase form of the enzyme. Previous work in Well's laboratory has shown that such allosteric inhibitors can be identified and these act by binding at the dimer interface of enzyme (Hardy, Lam et al., 2004).
The biochemical assay was configured using purified caspase 1 at a high enzyme concentration to promote formation of the homodimers and thus facilitate the identification of allosteric inhibitors. […] After initiation of the assay with substrate the plates were rapidly read using an automated robotic system (Kalypsys, Inc.) to maintain consistent timing. […]
Caspase 1 was prepared in buffer (50 mM HEPES pH 7.5, 50 mM KCl, 200 mM NaCl, 10 mM DTT, 0.1% CHAPS) at a concentration of 66.6 nM and 3 uL was dispensed to all wells using black solid Kalypsys 1536-well plates. […] The plates were then exposed using 405 nm excitation/520 nm emission filters for 4 sec and read at 20 sec intervals for 3 min. […]
Concentration-response curves were fitted to the data calculated from slope of the linear regression of fluorescent intensity versus time (the rate). The concentration-effect curves were then classified based on curve quality (r2), response magnitude and degree of measured activity. […] Inconclusive compounds had appreciable concentration-dependent effects on both the measured rate and the interpolated basal fluorescence intensity at the start of the reaction but where the basal fluorescent intensity was marginal (e.g. < 10-fold). […]

Sequences of proteins named here, by UniProt entry; tags and fusion partners are left off. A change or cut given only in a name is not applied to a line headed by its entry.
UniProt P29466: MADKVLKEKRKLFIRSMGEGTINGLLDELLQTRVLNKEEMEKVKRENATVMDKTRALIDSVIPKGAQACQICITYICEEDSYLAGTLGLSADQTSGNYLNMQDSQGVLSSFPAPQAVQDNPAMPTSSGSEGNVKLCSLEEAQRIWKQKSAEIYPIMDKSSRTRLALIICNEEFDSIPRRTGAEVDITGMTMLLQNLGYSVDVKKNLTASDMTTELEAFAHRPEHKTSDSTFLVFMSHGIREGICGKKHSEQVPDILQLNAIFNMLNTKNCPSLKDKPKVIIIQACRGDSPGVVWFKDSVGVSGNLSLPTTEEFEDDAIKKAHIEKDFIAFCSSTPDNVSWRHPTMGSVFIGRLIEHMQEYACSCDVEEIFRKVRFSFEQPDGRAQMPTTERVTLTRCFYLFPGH

Activity change, negative = inhibition, inactive:
CCCCCCc1ccc(O)cc1O -2.33% [at 57.5 µM]
COC(=O)C1=CO[C@@H](C)[C@H]2CN3CCc4c([nH]c5ccccc45)[C@@H]3C[C@H]12 -2.48% and -11.3%
COc1ccc2c3c([nH]c2c1)[C@H]1C[C@@H]2[C@@H](C[C@@H](O)[C@H](OC)[C@H]2C(=O)O)CN1CC3 -9.03% [at 11.5 µM]

From PubChem BioAssay AID900 (National Center for Advancing Translational Sciences (NCATS), 2007)
